{
  "sequences": {"note": "Sequences of proteins named here, by UniProt entry; tags and fusion partners are left off.", "UniProt P34972, whole entry": "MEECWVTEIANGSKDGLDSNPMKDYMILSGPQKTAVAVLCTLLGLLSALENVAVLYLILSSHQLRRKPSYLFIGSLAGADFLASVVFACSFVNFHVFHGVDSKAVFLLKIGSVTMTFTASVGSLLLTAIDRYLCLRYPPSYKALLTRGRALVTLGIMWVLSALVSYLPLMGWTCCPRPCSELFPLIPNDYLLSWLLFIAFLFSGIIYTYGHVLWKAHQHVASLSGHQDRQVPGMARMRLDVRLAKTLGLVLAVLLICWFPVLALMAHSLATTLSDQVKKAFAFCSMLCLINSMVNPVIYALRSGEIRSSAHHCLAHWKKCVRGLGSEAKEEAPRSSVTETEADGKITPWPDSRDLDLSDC"},
  "source": "ChEMBL document CHEMBL4364306",
  "about": "“Structure-activity relationships of thiazole and benzothiazole derivatives as selective cannabinoid CB2 agonists with in vivo anti-inflammatory properties” (Eur J Med Chem, 2019)",
  "target": "Cannabinoid receptor 2 (Homo sapiens, UniProt P34972)",
  "assay": "Displacement of [3H]CP55940 from recombinant human CB2R expressed in HEK293 cell membranes at 10 uM incubated for 90 mins relative to control",
  "summary_of_the_method": "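Membranes of HEK-293 cells expressing human recombinant CB2 (Bmax 4.7 pmol/mg protein) incubated with [3H]-CP-55,940 at 0.084 nM (Kd 0.31 nM) for 90 min at 30 °C. Compound screened at 10 µM for percent displacement. Nonspecific binding defined with WIN55,212-2.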",
  "note": "Activity calls are given as the source filed them. No cut-off for these calls is given here.",
  "data": [
    {"smiles": "Cc1ccc(Cn2nc(C(=O)N[C@@H]3C(C)(C)[C@@H]4CC[C@@]3(C)C4)cc2-c2ccc(Cl)c(C)c2)cc1", "values": [
      {"measurement": "Activity", "value": "Active"}
    ]}
  ]
}
